US6297237A, “Process for the preparation of aminocarbonyl derivatives of geneseroline having selective brain anticholinesterase activity” (priority 1997, dated 2001)

The chains behind the UniProt entries cited, without tags or fusion partners. Residues count along the entry.
UniProt P06276, 29-602: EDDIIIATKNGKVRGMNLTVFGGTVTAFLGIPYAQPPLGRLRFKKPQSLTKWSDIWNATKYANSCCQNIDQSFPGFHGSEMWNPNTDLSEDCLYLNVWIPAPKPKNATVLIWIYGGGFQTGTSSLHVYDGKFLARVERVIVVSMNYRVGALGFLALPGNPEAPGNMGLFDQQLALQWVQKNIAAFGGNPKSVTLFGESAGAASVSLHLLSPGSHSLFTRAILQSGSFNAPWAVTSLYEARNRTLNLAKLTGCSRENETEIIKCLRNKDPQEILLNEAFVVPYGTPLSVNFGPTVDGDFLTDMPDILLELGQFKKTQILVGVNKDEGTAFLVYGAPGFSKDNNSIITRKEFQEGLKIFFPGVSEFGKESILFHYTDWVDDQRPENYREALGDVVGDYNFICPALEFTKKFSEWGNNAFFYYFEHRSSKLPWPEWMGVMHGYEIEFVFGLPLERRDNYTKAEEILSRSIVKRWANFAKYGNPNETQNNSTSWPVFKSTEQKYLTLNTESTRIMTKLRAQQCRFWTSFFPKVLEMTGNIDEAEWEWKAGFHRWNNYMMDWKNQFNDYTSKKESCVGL

Biological target: T1, human plasma BuChE (Homo sapiens, UniProt P06276)
T1 construct: human plasma BuChE; from tissue; host or cells: human plasma
Test: In vitro inhibition of human plasma BuChE (Table 3)
Type: biochemical
Conditions: n = 4-8, read-out: BuChE IC50 (μM) ± s.e.

With `CCN(C)C(=O)Oc1cccc([C@H](C)N(C)C)c1` [SDZ-ENA 713, reference compound] the IC50 was 0.45 ± 0.02 µM.
